Data taken from PubChem BioAssay AID652104 (National Center for Advancing Translational Sciences (NCATS), 2013).
Only a part is listed here, and it is no random draw. Inconclusive results are not listed. Activity calls are given as the source filed them. The call rests on the fitted dose curve; in most records, active means well fitted activation curve with a large enough effect; inconclusive means small, poorly fitted or top-dose-only effect, or another doubt; inactive means no such curve, though single readings can be large or run the other way.

Assay: qHTS of TDP-43 Inhibitors; further: % of control where 0% means no effect; nearly all actives have a fitted effect of over 50% in size
Details: TDP-43 expressing yeast growth rescue, BacTiter-Glo, 24 h; at 46.1 µM (top of the series)
From the text: The goal of this project is to identify new chemical probes capable of reversing the toxicity associated with TDP-43 which is associated with frontotemporal lobar degeneration and amyotrophic lateral sclerosis. These compounds will provide a complementary approach to deciphering the tangled mechanisms of toxicity and protection that we have uncovered through genome-wide genetic screens and are beginning to uncover in a large-scale proteomics analysis with mass spectroscopy.
To this end, a miniaturized assay was developed to be screened against the Molecular Libraries Small Molecule Repository (MLSMR) to discover TDP-43 inhibitors. Please note that in the set-up this yeast-based assay compounds that inhibit as TDP-43, have a read-out as activators.
NIH Chemical Genomics Center [NCGC]
NIH Molecular Libraries Probe Centers Network [MLPCN]
Assay Submitter (PI): Susan Lindquist, Whitehead Institute/MIT
Dispense 2.5 microL yeast galactose medium per 1536-well plate, pin compound, dispense 2.5 microL TDP-43 expressing yeast in galactose medium at OD600=0.02 (pregrown in raffinose medium to mid-log phase) per well, incubate for 24 hr at 30 deg C, and cell growth will be measured using 5 microL of Bactiter/Glo reagent to entire plate and read using Luminescence Protocol in ViewLux.

Structure (SMILES) | growth rescue (activation)
COc1ccc(CC(C)NCC(O)c2ccc(O)c(NC=O)c2)cc1 (stereo unspecified) | inactive: 17.4%
